From the kinase profiling compilation of Christmann-Franck et al. (2016)

Sequences of proteins named here, by UniProt entry; tags and fusion partners are left off. A change or cut given only in a name is not applied to a line headed by its entry.
UniProt P25098: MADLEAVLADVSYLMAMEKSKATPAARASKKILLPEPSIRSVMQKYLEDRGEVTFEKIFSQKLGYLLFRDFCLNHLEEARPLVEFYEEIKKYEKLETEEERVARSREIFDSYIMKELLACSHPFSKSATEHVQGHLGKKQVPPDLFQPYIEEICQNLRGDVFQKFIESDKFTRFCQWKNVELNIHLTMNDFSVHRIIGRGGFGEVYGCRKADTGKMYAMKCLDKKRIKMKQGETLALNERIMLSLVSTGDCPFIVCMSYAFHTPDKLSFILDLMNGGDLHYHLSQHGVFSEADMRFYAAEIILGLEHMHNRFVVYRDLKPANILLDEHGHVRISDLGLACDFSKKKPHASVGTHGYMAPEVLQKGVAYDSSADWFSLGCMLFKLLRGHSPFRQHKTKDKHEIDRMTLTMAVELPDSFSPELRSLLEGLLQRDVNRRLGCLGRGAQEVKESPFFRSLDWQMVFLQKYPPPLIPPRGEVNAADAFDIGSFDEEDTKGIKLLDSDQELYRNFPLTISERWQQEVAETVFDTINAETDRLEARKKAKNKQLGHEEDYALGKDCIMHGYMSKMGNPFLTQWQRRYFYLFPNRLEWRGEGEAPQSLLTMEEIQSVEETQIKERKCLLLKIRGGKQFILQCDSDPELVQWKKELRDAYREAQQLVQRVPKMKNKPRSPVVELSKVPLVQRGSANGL
UniProt Q8IWQ3: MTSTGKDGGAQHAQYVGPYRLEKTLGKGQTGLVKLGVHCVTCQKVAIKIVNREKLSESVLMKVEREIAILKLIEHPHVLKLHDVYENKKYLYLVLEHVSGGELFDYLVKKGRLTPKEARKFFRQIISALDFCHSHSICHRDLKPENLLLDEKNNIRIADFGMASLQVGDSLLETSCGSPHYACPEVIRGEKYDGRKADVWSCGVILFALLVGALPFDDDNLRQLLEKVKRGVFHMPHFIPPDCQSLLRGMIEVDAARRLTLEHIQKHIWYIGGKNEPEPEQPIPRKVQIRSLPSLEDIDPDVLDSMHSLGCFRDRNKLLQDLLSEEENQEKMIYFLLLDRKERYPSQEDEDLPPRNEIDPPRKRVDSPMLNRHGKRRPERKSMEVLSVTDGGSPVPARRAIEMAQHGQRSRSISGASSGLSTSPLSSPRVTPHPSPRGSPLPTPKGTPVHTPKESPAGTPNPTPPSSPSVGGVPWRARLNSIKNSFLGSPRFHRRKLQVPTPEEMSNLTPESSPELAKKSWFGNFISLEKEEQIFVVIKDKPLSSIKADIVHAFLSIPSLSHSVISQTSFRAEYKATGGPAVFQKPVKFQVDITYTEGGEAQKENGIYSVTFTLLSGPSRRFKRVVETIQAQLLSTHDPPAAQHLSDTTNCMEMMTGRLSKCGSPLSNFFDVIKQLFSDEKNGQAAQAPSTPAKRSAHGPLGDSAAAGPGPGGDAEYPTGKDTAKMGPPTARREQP
UniProt Q9NR20: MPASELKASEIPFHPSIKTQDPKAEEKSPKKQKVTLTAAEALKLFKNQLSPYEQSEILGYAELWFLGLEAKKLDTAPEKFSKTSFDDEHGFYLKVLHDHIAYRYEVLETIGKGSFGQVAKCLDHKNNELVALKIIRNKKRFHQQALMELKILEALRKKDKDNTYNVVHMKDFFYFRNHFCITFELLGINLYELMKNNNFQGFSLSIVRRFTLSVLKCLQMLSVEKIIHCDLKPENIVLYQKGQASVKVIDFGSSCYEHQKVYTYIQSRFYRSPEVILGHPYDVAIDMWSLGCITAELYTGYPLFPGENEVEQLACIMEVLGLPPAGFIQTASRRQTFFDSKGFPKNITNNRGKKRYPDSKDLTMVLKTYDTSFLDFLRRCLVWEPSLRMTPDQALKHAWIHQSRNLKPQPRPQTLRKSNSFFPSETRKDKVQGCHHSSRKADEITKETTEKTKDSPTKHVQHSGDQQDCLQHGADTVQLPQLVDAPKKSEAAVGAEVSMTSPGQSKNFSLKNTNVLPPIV
UniProt O14920: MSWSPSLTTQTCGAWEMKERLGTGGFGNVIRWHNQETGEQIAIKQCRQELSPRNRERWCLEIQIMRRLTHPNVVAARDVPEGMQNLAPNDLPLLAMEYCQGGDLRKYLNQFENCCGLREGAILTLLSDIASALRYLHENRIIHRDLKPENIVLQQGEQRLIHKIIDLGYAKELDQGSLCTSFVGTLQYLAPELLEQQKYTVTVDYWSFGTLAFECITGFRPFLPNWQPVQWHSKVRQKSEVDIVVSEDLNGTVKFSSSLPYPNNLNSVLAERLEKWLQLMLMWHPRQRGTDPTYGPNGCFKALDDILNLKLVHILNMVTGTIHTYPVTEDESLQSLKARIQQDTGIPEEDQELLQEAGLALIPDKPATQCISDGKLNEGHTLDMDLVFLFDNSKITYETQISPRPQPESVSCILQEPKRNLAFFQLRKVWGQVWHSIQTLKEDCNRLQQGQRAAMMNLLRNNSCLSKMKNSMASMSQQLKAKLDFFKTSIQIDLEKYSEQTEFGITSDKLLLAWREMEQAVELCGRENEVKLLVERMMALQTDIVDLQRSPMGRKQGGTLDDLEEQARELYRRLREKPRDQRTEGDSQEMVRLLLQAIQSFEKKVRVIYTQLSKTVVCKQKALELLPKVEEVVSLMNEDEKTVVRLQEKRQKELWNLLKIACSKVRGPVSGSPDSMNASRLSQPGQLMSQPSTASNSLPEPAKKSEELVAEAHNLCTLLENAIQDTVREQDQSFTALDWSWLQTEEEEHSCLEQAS
UniProt Q8NG66: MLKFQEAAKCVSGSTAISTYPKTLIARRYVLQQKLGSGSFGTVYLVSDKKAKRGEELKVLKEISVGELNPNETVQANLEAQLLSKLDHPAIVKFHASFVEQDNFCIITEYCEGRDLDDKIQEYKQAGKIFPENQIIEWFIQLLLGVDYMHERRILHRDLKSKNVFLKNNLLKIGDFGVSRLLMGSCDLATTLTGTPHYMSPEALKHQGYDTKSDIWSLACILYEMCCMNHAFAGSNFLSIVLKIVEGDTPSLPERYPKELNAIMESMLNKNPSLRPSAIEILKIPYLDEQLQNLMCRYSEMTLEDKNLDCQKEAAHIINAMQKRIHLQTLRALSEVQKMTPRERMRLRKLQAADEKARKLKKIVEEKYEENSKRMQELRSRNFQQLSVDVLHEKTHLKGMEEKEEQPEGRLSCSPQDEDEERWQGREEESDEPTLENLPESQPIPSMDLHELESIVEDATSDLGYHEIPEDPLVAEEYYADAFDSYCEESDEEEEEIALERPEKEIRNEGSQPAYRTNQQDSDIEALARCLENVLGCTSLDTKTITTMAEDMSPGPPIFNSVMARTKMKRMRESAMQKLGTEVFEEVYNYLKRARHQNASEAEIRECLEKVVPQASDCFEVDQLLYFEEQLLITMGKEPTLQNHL
UniProt P51957: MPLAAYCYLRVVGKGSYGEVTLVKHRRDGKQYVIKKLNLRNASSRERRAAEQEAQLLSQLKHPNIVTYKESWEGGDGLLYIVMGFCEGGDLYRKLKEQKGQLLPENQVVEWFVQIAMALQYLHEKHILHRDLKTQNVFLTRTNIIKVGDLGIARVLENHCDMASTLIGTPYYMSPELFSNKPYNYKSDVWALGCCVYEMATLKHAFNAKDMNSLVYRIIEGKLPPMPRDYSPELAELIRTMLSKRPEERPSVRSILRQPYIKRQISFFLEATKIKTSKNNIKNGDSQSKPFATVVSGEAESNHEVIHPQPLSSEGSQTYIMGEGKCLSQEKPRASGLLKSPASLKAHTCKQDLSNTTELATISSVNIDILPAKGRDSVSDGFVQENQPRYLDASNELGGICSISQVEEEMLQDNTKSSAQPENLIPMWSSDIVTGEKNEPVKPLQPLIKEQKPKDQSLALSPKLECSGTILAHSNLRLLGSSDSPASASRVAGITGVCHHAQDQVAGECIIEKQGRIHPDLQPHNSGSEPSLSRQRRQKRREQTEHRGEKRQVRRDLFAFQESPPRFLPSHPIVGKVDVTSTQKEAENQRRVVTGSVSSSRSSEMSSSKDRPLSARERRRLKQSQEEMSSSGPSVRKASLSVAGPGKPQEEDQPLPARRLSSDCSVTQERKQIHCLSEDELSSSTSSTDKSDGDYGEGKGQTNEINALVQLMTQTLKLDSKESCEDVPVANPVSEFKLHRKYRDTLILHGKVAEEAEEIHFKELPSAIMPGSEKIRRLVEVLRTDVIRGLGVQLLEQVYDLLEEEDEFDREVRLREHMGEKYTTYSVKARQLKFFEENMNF
UniProt Q9UBE8: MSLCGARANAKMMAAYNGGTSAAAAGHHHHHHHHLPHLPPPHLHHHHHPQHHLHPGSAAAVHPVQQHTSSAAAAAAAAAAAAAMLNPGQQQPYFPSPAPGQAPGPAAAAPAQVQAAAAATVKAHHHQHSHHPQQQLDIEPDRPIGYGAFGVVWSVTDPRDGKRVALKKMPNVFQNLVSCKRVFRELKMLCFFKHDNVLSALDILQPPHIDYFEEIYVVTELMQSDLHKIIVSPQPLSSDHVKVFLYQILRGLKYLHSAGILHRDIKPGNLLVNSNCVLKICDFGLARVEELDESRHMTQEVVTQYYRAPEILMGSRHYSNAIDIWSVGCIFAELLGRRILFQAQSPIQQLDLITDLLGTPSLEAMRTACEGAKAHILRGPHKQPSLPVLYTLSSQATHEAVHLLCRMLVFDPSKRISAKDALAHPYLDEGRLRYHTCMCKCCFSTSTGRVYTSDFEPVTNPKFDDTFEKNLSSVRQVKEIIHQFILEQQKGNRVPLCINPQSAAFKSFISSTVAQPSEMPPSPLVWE
UniProt Q15418, whole entry, looked up: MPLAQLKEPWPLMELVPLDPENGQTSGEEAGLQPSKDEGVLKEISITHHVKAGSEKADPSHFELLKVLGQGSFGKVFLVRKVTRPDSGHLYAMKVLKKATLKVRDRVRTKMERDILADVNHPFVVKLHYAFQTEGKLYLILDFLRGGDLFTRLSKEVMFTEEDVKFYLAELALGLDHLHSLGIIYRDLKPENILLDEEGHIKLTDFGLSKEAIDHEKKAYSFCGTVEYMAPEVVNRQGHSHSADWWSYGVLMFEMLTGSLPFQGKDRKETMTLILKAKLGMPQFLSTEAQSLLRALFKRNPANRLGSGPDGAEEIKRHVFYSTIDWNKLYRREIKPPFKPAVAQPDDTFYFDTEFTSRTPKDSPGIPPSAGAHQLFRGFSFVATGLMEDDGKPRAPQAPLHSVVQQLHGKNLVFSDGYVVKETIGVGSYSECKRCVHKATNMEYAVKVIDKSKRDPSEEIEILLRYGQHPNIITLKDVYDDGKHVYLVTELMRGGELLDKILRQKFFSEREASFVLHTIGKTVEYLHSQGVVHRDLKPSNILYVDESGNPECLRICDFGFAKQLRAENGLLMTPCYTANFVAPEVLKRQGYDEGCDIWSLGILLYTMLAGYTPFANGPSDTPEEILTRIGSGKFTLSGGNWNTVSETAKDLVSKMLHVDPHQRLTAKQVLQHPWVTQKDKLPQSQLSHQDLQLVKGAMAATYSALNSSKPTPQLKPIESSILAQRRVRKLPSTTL
UniProt Q8IYT8: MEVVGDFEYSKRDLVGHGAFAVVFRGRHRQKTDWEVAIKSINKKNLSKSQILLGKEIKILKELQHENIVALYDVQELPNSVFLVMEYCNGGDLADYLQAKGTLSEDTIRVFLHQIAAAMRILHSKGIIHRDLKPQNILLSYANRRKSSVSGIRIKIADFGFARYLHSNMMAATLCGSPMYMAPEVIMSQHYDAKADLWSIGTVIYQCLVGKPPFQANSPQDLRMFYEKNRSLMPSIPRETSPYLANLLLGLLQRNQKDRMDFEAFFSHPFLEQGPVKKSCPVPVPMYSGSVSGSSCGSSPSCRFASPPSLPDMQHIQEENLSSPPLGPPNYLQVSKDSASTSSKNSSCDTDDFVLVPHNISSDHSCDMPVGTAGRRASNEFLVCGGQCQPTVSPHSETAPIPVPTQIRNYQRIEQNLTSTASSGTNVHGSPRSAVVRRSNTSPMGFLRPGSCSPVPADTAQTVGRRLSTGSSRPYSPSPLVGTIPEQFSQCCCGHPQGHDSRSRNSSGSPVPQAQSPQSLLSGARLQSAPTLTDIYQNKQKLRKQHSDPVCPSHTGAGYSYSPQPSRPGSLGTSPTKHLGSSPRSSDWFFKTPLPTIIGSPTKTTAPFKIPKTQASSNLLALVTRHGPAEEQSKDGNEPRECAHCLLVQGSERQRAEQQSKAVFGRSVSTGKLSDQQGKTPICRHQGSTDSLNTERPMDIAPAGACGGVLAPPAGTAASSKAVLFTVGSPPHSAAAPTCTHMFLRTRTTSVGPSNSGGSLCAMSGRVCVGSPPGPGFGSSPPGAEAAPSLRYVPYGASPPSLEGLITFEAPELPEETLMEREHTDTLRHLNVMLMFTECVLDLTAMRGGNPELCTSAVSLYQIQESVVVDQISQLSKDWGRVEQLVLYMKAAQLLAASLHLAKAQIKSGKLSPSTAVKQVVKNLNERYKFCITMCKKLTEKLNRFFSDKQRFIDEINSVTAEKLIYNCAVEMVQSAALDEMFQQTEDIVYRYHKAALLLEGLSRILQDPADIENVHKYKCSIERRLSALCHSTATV

What was measured:
Test in all cases: radiometric filter-binding kinase assay, Kinase HotSpot
Details in all cases: compound 0.5 µM; ATP 10 µM
ADRBK1 (human) = ADRBK1 (human) (UniProt P25098)
BRSK1 (human) = BRSK1 (human) (UniProt Q8TDC3)
BRSK2 (human) = BRSK2 (human) (UniProt Q8IWQ3)
CAMK1G (human) = CAMK1G (human) (UniProt Q96NX5)
CAMK2G (human) = CAMK2G (human) (UniProt Q13555)
CDC42BPB (human) = CDC42BPB (human) (UniProt Q9Y5S2)
CLK1 (human) = CLK1 (human) (UniProt P49759)
CLK3 (human) = CLK3 (human) (UniProt P49761)
CSNK1G3 (human) = CSNK1G3 (human) (UniProt Q9Y6M4)
DYRK4 (human) = DYRK4 (human) (UniProt Q9NR20)
EPHA3 (human) = EPHA3 (human) (UniProt P29320)
FGFR1 (human) = FGFR1 (human) (UniProt P11362)
FLT1 (human) = FLT1 (human) (UniProt P17948)
HIPK4 (human) = HIPK4 (human) (UniProt Q8NE63)
IKBKB (human) = IKBKB (human) (UniProt O14920)
[1] = molecular target: JAK1 JH1 catalytic (human) (UniProt P23458)
JAK2 JH1 JH2 (human) = JAK2 JH1 JH2 (human) (UniProt O60674)
LCK (human) = LCK (human) (UniProt P06239)
MAP3K11 (human) = MAP3K11 (human) (UniProt Q16584)
MAP3K8 (human) = MAP3K8 (human) (UniProt P41279)
MAP3K9 (human) = MAP3K9 (human) (UniProt P80192)
MELK (human) = MELK (human) (UniProt Q14680)
MET (human) = MET (human) (UniProt P08581)
MINK1 (human) = MINK1 (human) (UniProt Q8N4C8)
NEK11 (human) = NEK11 (human) (UniProt Q8NG66)
NEK4 (human) = NEK4 (human) (UniProt P51957)
NLK (human) = NLK (human) (UniProt Q9UBE8)
NUAK2 (human) = NUAK2 (human) (UniProt Q9H093)
PHKG2 (human) = PHKG2 (human) (UniProt P15735)
PRKACA (human) = PRKACA (human) (UniProt P17612)
PTK2B (human) = PTK2B (human) (UniProt Q14289)
RAF1 (human) = RAF1 (human) (UniProt P04049)
RPS6KA1 KD1 KD2 (human) = RPS6KA1 KD1 KD2 (human) (UniProt Q15418)
RPS6KA2 KD1 KD2 (human) = RPS6KA2 KD1 KD2 (human) (UniProt Q15349)
RPS6KA3 KD1 KD2 (human) = RPS6KA3 KD1 KD2 (human) (UniProt P51812)
RPS6KB2 (human) = RPS6KB2 (human) (UniProt Q9UBS0)
SGK2 (human) = SGK2 (human) (UniProt Q9HBY8)
SRMS (human) = SRMS (human) (UniProt Q9H3Y6)
STK4 (human) = STK4 (human) (UniProt Q13043)
TAOK2 (human) = TAOK2 (human) (UniProt Q9UL54)
TBK1 (human) = TBK1 (human) (UniProt Q9UHD2)
ULK2 (human) = ULK2 (human) (UniProt Q8IYT8)

SMILES: O=C1c2ccccc2-[n+]2ccc3c([nH]c4ccccc43)c21
- residual activity (ADRBK1 (human)): 102%
- residual activity (BRSK1 (human)): 95.3%
- residual activity (BRSK2 (human)): 91.3%
- residual activity (CAMK1G (human)): 91%
- residual activity (CAMK2G (human)): 94.2%
- residual activity (CDC42BPB (human)): 90.9%
- residual activity (CLK1 (human)): 98%
- residual activity (CLK3 (human)): 88.2%
- residual activity (CSNK1G3 (human)): 79.7%
- residual activity (DYRK4 (human)): 99%
- residual activity (EPHA3 (human)): 110%
- residual activity (FGFR1 (human)): 71.5%
- residual activity (FLT1 (human)): 86.9%
- residual activity (HIPK4 (human)): 96.5%
- residual activity (IKBKB (human)): 86.7%
- residual activity [1]: 96.8%
- residual activity (JAK2 JH1 JH2 (human)): 91.6%
- residual activity (LCK (human)): 91.2%
- residual activity (MAP3K11 (human)): 82.1%
- residual activity (MAP3K8 (human)): 84.9%
- residual activity (MAP3K9 (human)): 94.3%
- residual activity (MELK (human)): 68.5%
- residual activity (MET (human)): 87.3%
- residual activity (MINK1 (human)): 83.2%
- residual activity (NEK11 (human)): 91.6%
- residual activity (NEK4 (human)): 106%
- residual activity (NLK (human)): 94.9%
- residual activity (NUAK2 (human)): 109%
- residual activity (PHKG2 (human)): 104%
- residual activity (PRKACA (human)): 97.4%
- residual activity (PTK2B (human)): 92.7%
- residual activity (RAF1 (human)): 92.9%
- residual activity (RPS6KA1 KD1 KD2 (human)): 78.6%
- residual activity (RPS6KA2 KD1 KD2 (human)): 94.9%
- residual activity (RPS6KA3 KD1 KD2 (human)): 98.7%
- residual activity (RPS6KB2 (human)): 95.3%
- residual activity (SGK2 (human)): 95.8%
- residual activity (SRMS (human)): 89.5%
- residual activity (STK4 (human)): 102%
- residual activity (TAOK2 (human)): 99.4%
- residual activity (TBK1 (human)): 98.9%
- residual activity (ULK2 (human)): 123%

SMILES: COc1cc(OC)c(/C=C2\C(=O)Nc3ccccc32)c(OC)c1
- residual activity (ADRBK1 (human)): 97.5%
- residual activity (BRSK1 (human)): 95.2%
- residual activity (BRSK2 (human)): 95.4%
- residual activity (CAMK1G (human)): 103%
- residual activity (CAMK2G (human)): 86.8%
- residual activity (CDC42BPB (human)): 101%
- residual activity (CLK1 (human)): 94.9%
- residual activity (CLK3 (human)): 94.3%
- residual activity (CSNK1G3 (human)): 101%
- residual activity (DYRK4 (human)): 96.3%
- residual activity (EPHA3 (human)): 93.9%
- residual activity (FGFR1 (human)): 83.5%
- residual activity (FLT1 (human)): 105%
- residual activity (HIPK4 (human)): 109%
- residual activity (IKBKB (human)): 94.5%
- residual activity [1]: 105%
- residual activity (JAK2 JH1 JH2 (human)): 103%
- residual activity (LCK (human)): 93.4%
- residual activity (MAP3K11 (human)): 89.6%
- residual activity (MAP3K8 (human)): 98.4%
- residual activity (MAP3K9 (human)): 101%
- residual activity (MELK (human)): 84.2%
- residual activity (MET (human)): 150%
- residual activity (MINK1 (human)): 76.8%
- residual activity (NEK11 (human)): 100%
- residual activity (NEK4 (human)): 93.1%
- residual activity (NLK (human)): 102%
- residual activity (NUAK2 (human)): 109%
- residual activity (PHKG2 (human)): 94.2%
- residual activity (PRKACA (human)): 101%
- residual activity (PTK2B (human)): 100%
- residual activity (RAF1 (human)): 95.4%
- residual activity (RPS6KA1 KD1 KD2 (human)): 82.8%
- residual activity (RPS6KA2 KD1 KD2 (human)): 95.7%
- residual activity (RPS6KA3 KD1 KD2 (human)): 90.4%
- residual activity (RPS6KB2 (human)): 99.3%
- residual activity (SGK2 (human)): 102%
- residual activity (SRMS (human)): 97.7%
- residual activity (STK4 (human)): 94.4%
- residual activity (TAOK2 (human)): 100%
- residual activity (TBK1 (human)): 98.1%
- residual activity (ULK2 (human)): 103%
